From patent US20140100156A1 (SANOFI, priority 2012, published 2014)
Where two headings read alike, the source gives them in different places.

By UniProt entry, the sequences of proteins in these tests, tags left out. Residues count along the entry.
UniProt P47871, 26-477: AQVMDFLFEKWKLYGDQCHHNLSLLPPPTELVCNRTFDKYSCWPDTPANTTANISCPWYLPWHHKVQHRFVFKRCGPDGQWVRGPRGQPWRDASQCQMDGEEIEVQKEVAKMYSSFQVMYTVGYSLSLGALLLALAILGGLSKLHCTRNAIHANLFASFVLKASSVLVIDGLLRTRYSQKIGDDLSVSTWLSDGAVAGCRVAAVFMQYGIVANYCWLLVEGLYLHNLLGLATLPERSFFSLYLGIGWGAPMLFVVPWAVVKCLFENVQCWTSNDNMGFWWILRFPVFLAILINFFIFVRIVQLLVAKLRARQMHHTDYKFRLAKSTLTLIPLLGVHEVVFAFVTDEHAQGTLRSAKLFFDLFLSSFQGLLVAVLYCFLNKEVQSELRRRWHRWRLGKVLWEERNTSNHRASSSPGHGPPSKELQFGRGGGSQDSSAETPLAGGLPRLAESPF
UniProt P43220, 24-463: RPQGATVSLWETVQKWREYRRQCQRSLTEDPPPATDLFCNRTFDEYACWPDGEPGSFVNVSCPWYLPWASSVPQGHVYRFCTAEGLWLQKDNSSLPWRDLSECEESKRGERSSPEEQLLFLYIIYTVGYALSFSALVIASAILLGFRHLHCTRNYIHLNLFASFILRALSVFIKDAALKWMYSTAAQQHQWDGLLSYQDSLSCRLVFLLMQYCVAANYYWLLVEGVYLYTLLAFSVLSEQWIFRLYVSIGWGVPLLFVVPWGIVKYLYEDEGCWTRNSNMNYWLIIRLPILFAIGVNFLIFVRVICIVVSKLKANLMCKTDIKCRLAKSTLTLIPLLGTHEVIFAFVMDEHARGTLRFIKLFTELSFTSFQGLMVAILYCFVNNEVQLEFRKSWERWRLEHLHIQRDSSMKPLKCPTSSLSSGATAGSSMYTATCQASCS

Tests used:
[1] = target: T1, human glucagon receptor (Homo sapiens, UniProt P47871); assay: cAMP response (HTRF) of HEK-293 cells stably expressing human glucagon receptor; format: cell-based; details: Table 5, cAMP, HEK-293
T1 construct: expressed in transfected cells; host or cells: HEK-293

[2] = target: T2, human GLP-1 receptor (Homo sapiens, UniProt P43220); assay: cAMP response (HTRF) of HEK-293 cells stably expressing human GLP-1 receptor; format: cell-based; details: Table 5, cAMP, HEK-293
T2 construct: expressed in transfected cells; host or cells: HEK-293

Structure (SMILES) | EC50 ([1]; EC50 hGlucagon-R) | EC50 ([2]; EC50 hGLP-1R) | EC50 ([1]; read-out: EC50 hGlucagon-R) | EC50 ([2]; read-out: EC50 hGLP-1R)
CC[C@H](C)[C@H](NC(=O)[C@H](Cc1ccccc1)NC(=O)[C@H](CC(=O)O)NC(=O)[C@H](CCC(N)=O)NC(=O)[C@H](C)NC(=O)[C@H](C)NC(=O)[C@H](CCCNC(=N)N)NC(=O)[C@H](CO)NC(=O)[C@H](CCC(=O)O)NC(=O)[C@H](CCCCNC(=O)CC[C@H](NC(=O)CCC(=O)Oc1c(C)c(C)c2c(c1C)CC[C@@](C)(CCC[C@H](C)CCC[C@H](C)CCCC(C)C)O2)C(=O)O)NC(=O)[C@H](CCC(N)=O)NC(=O)[C@H](CCCCN)NC(=O)[C@H](CO)NC(=O)[C@H](CC(C)C)NC(=O)[C@H](CC(=O)O)NC(=O)[C@H](CO)NC(=O)[C@@H](NC(=O)[C@H](Cc1ccccc1)NC(=O)[C@@H](NC(=O)CNC(=O)[C@H](CCC(N)=O)NC(=O)[C@@H](CO)NC(=O)[C@@H](N)Cc1c[nH]cn1)[C@@H](C)O)[C@@H](C)O)C(=O)N[C@@H](CCC(=O)O)C(=O)N[C@@H](Cc1c[nH]c2ccccc12)C(=O)N[C@@H](CC(C)C)C(=O)N[C@@H](CCCCN)C(=O)N[C@@H](C)C(=O)NCC(=O)NCC(=O)N1CCC[C@H]1C(=O)N[C@@H](CO)C(=O)N[C@@H](CO)C(=O)NCC(=O)N[C@@H](C)C(=O)N1CCC[C@H]1C(=O)N1CCC[C@H]1C(=O)N1CCC[C@H]1C(=O)N[C@@H](CO)C(N)=O [compound 57] | 8 pM | 45 pM | – | –
CC[C@H](C)[C@H](NC(=O)[C@H](Cc1ccccc1)NC(=O)[C@H](CC(=O)O)NC(=O)[C@H](CCC(N)=O)NC(=O)[C@H](C)NC(=O)[C@H](C)NC(=O)[C@H](CCCNC(=N)N)NC(=O)[C@H](CO)NC(=O)[C@H](CCC(=O)O)NC(=O)[C@H](CCCCNC(=O)CCCNC(=O)CCC(=O)Oc1c(C)c(C)c2c(c1C)CC[C@@](C)(CCC[C@H](C)CCC[C@H](C)CCCC(C)C)O2)NC(=O)[C@H](CCC(N)=O)NC(=O)[C@H](CCCCN)NC(=O)[C@H](CO)NC(=O)[C@H](CC(C)C)NC(=O)[C@H](CC(=O)O)NC(=O)[C@H](CO)NC(=O)[C@@H](NC(=O)[C@H](Cc1ccccc1)NC(=O)[C@@H](NC(=O)CNC(=O)[C@H](CCC(N)=O)NC(=O)[C@@H](CO)NC(=O)[C@@H](N)Cc1c[nH]cn1)[C@@H](C)O)[C@@H](C)O)C(=O)N[C@@H](CCC(=O)O)C(=O)N[C@@H](Cc1c[nH]c2ccccc12)C(=O)N[C@@H](CC(C)C)C(=O)N[C@@H](CCCCN)C(=O)N[C@@H](C)C(=O)NCC(=O)NCC(=O)N1CCC[C@H]1C(=O)N[C@@H](CO)C(=O)N[C@@H](CO)C(=O)NCC(=O)N[C@@H](C)C(=O)N1CCC[C@H]1C(=O)N1CCC[C@H]1C(=O)N1CCC[C@H]1C(=O)N[C@@H](CO)C(N)=O [compound 58] | 15.1 pM | 45.6 pM | – | –
CCCCCCCCCCCCCCCCCCCCC(=O)N[C@@H](CCC(=O)NCCCC[C@H](NC(=O)[C@H](CCC(N)=O)NC(=O)[C@H](CCCCN)NC(=O)[C@H](CO)NC(=O)[C@H](CC(C)C)NC(=O)[C@H](CC(=O)O)NC(=O)[C@H](CO)NC(=O)[C@@H](NC(=O)[C@H](Cc1ccccc1)NC(=O)[C@@H](NC(=O)CNC(=O)[C@H](CCC(N)=O)NC(=O)[C@@H](CO)NC(=O)[C@@H](N)Cc1c[nH]cn1)[C@@H](C)O)[C@@H](C)O)C(=O)N[C@@H](CCC(=O)O)C(=O)N[C@@H](CO)C(=O)N[C@@H](CCCNC(=N)N)C(=O)N[C@@H](C)C(=O)N[C@@H](C)C(=O)N[C@@H](CCC(N)=O)C(=O)N[C@@H](CC(=O)O)C(=O)N[C@@H](Cc1ccccc1)C(=O)N[C@H](C(=O)N[C@@H](CCC(=O)O)C(=O)N[C@@H](Cc1c[nH]c2ccccc12)C(=O)N[C@@H](CC(C)C)C(=O)N[C@@H](CCCCN)C(=O)N[C@@H](C)C(=O)NCC(=O)NCC(=O)N1CCC[C@H]1C(=O)N[C@@H](CO)C(=O)N[C@@H](CO)C(=O)NCC(=O)N[C@@H](C)C(=O)N1CCC[C@H]1C(=O)N1CCC[C@H]1C(=O)N1CCC[C@H]1C(=O)N[C@@H](CO)C(N)=O)[C@@H](C)CC)C(=O)O [compound 59] | – | – | 6.8 pM | 7.9 pM
CCCCCCCCCCCCCCCCCCCCCC(=O)N[C@@H](CCC(=O)NCCCC[C@H](NC(=O)[C@H](CCC(N)=O)NC(=O)[C@H](CCCCN)NC(=O)[C@H](CO)NC(=O)[C@H](CC(C)C)NC(=O)[C@H](CC(=O)O)NC(=O)[C@H](CO)NC(=O)[C@@H](NC(=O)[C@H](Cc1ccccc1)NC(=O)[C@@H](NC(=O)CNC(=O)[C@H](CCC(N)=O)NC(=O)[C@@H](CO)NC(=O)[C@@H](N)Cc1c[nH]cn1)[C@@H](C)O)[C@@H](C)O)C(=O)N[C@@H](CCC(=O)O)C(=O)N[C@@H](CO)C(=O)N[C@@H](CCCNC(=N)N)C(=O)N[C@@H](C)C(=O)N[C@@H](C)C(=O)N[C@@H](CCC(N)=O)C(=O)N[C@@H](CC(=O)O)C(=O)N[C@@H](Cc1ccccc1)C(=O)N[C@H](C(=O)N[C@@H](CCC(=O)O)C(=O)N[C@@H](Cc1c[nH]c2ccccc12)C(=O)N[C@@H](CC(C)C)C(=O)N[C@@H](CCCCN)C(=O)N[C@@H](C)C(=O)NCC(=O)NCC(=O)N1CCC[C@H]1C(=O)N[C@@H](CO)C(=O)N[C@@H](CO)C(=O)NCC(=O)N[C@@H](C)C(=O)N1CCC[C@H]1C(=O)N1CCC[C@H]1C(=O)N1CCC[C@H]1C(=O)N[C@@H](CO)C(N)=O)[C@@H](C)CC)C(=O)O [compound 60] | – | – | 19.3 pM | 38.4 pM
CCCCCCCC/C=C\CCCCCCCCC(=O)N[C@@H](CCC(=O)NCCCC[C@H](NC(=O)[C@H](CCC(N)=O)NC(=O)[C@H](CCCCN)NC(=O)[C@H](CO)NC(=O)[C@H](CC(C)C)NC(=O)[C@H](CC(=O)O)NC(=O)[C@H](CO)NC(=O)[C@@H](NC(=O)[C@H](Cc1ccccc1)NC(=O)[C@@H](NC(=O)CNC(=O)[C@H](CCC(N)=O)NC(=O)[C@@H](CO)NC(=O)[C@@H](N)Cc1c[nH]cn1)[C@@H](C)O)[C@@H](C)O)C(=O)N[C@@H](CCC(=O)O)C(=O)N[C@@H](CO)C(=O)N[C@@H](CCCNC(=N)N)C(=O)N[C@@H](C)C(=O)N[C@@H](C)C(=O)N[C@@H](CCC(N)=O)C(=O)N[C@@H](CC(=O)O)C(=O)N[C@@H](Cc1ccccc1)C(=O)N[C@H](C(=O)N[C@@H](CCC(=O)O)C(=O)N[C@@H](Cc1c[nH]c2ccccc12)C(=O)N[C@@H](CC(C)C)C(=O)N[C@@H](CCCCN)C(=O)N[C@@H](C)C(=O)NCC(=O)NCC(=O)N1CCC[C@H]1C(=O)N[C@@H](CO)C(=O)N[C@@H](CO)C(=O)NCC(=O)N[C@@H](C)C(=O)N1CCC[C@H]1C(=O)N1CCC[C@H]1C(=O)N1CCC[C@H]1C(=O)N[C@@H](CO)C(N)=O)[C@@H](C)CC)C(=O)O [compound 61] | – | – | 16 pM | 5.3 pM
CCCCCCCCCCOc1ccc(C(=O)N[C@@H](CCC(=O)NCCCC[C@H](NC(=O)[C@H](CCC(N)=O)NC(=O)[C@H](CCCCN)NC(=O)[C@H](CO)NC(=O)[C@H](CC(C)C)NC(=O)[C@H](CC(=O)O)NC(=O)[C@H](CO)NC(=O)[C@@H](NC(=O)[C@H](Cc2ccccc2)NC(=O)[C@@H](NC(=O)CNC(=O)[C@H](CCC(N)=O)NC(=O)[C@@H](CO)NC(=O)[C@@H](N)Cc2c[nH]cn2)[C@@H](C)O)[C@@H](C)O)C(=O)N[C@@H](CCC(=O)O)C(=O)N[C@@H](CO)C(=O)N[C@@H](CCCNC(=N)N)C(=O)N[C@@H](C)C(=O)N[C@@H](C)C(=O)N[C@@H](CCC(N)=O)C(=O)N[C@@H](CC(=O)O)C(=O)N[C@@H](Cc2ccccc2)C(=O)N[C@H](C(=O)N[C@@H](CCC(=O)O)C(=O)N[C@@H](Cc2c[nH]c3ccccc23)C(=O)N[C@@H](CC(C)C)C(=O)N[C@@H](CCCCN)C(=O)N[C@@H](C)C(=O)NCC(=O)NCC(=O)N2CCC[C@H]2C(=O)N[C@@H](CO)C(=O)N[C@@H](CO)C(=O)NCC(=O)N[C@@H](C)C(=O)N2CCC[C@H]2C(=O)N2CCC[C@H]2C(=O)N2CCC[C@H]2C(=O)N[C@@H](CO)C(N)=O)[C@@H](C)CC)C(=O)O)cc1 [compound 62] | 10.6 pM | 3.9 pM | – | –
CCCCCCCCCCCCCCCCCC(=O)N[C@@H](CCC(=O)NCCCC[C@H](NC(=O)[C@H](CCC(N)=O)NC(=O)[C@H](CCCCN)NC(=O)[C@H](CO)NC(=O)[C@H](CC(C)C)NC(=O)[C@H](CC(=O)O)NC(=O)[C@H](CO)NC(=O)[C@@H](NC(=O)[C@H](Cc1ccccc1)NC(=O)[C@@H](NC(=O)CNC(=O)[C@H](CCC(N)=O)NC(=O)[C@@H](CO)NC(=O)[C@@H](N)Cc1c[nH]cn1)[C@@H](C)O)[C@@H](C)O)C(=O)N[C@@H](CCC(=O)O)C(=O)N[C@@H](CO)C(=O)N[C@@H](CCCNC(=N)N)C(=O)N[C@@H](C)C(=O)N[C@@H](C)C(=O)N[C@@H](CCC(N)=O)C(=O)N[C@@H](CC(=O)O)C(=O)N[C@@H](Cc1ccccc1)C(=O)N[C@H](C(=O)N[C@@H](CCC(=O)O)C(=O)N[C@@H](Cc1c[nH]c2ccccc12)C(=O)N[C@@H](CC(C)C)C(=O)N[C@@H](CCCCN)C(=O)N[C@@H](C)C(=O)NCC(=O)NCC(=O)N1CCC[C@H]1C(=O)N[C@@H](CO)C(=O)N[C@@H](CO)C(=O)NCC(=O)N[C@@H](C)C(=O)N1CCC[C@H]1C(=O)N1CCC[C@H]1C(=O)N1CCC[C@H]1C(=O)N[C@@H](CO)C(N)=O)[C@@H](C)CC)C(=O)O [compound 65] | – | – | 5.6 pM | 5 pM
CCCCCCCCCCCCCCCC(=O)N[C@@H](CCC(=O)NCCCC[C@H](NC(=O)[C@H](CCC(N)=O)NC(=O)[C@H](CCCCN)NC(=O)[C@H](CO)NC(=O)[C@H](CC(C)C)NC(=O)[C@H](CC(=O)O)NC(=O)[C@H](CO)NC(=O)[C@@H](NC(=O)[C@H](Cc1ccccc1)NC(=O)[C@@H](NC(=O)CNC(=O)[C@H](CCC(N)=O)NC(=O)[C@@H](CO)NC(=O)[C@@H](N)Cc1c[nH]cn1)[C@@H](C)O)[C@@H](C)O)C(=O)N[C@@H](CC(=O)O)C(=O)N[C@@H](CO)C(=O)N[C@@H](CCCNC(=N)N)C(=O)N[C@@H](CCCNC(=N)N)C(=O)N[C@@H](C)C(=O)NC(C)(C)C(=O)N[C@@H](CC(=O)O)C(=O)N[C@@H](Cc1ccccc1)C(=O)N[C@H](C(=O)N[C@@H](CCC(=O)O)C(=O)N[C@@H](Cc1c[nH]c2ccccc12)C(=O)N[C@@H](CC(C)C)C(=O)N[C@@H](CCCCN)C(=O)N[C@@H](C)C(=O)NCC(=O)NCC(=O)N1CCC[C@H]1C(=O)N[C@@H](CO)C(=O)N[C@@H](CO)C(=O)NCC(=O)N[C@@H](C)C(=O)N1CCC[C@H]1C(=O)N1CCC[C@H]1C(=O)N1CCC[C@H]1C(=O)N[C@@H](CO)C(N)=O)[C@@H](C)CC)C(=O)O [compound 67] | – | – | 3 pM | 15.7 pM
